Assay results: patent US8598345B2 (priority 2009, dated 2013)

Amino acid sequences for entries named in this document (tags omitted). Residues count along the entry.
UniProt P41594, 21-1212: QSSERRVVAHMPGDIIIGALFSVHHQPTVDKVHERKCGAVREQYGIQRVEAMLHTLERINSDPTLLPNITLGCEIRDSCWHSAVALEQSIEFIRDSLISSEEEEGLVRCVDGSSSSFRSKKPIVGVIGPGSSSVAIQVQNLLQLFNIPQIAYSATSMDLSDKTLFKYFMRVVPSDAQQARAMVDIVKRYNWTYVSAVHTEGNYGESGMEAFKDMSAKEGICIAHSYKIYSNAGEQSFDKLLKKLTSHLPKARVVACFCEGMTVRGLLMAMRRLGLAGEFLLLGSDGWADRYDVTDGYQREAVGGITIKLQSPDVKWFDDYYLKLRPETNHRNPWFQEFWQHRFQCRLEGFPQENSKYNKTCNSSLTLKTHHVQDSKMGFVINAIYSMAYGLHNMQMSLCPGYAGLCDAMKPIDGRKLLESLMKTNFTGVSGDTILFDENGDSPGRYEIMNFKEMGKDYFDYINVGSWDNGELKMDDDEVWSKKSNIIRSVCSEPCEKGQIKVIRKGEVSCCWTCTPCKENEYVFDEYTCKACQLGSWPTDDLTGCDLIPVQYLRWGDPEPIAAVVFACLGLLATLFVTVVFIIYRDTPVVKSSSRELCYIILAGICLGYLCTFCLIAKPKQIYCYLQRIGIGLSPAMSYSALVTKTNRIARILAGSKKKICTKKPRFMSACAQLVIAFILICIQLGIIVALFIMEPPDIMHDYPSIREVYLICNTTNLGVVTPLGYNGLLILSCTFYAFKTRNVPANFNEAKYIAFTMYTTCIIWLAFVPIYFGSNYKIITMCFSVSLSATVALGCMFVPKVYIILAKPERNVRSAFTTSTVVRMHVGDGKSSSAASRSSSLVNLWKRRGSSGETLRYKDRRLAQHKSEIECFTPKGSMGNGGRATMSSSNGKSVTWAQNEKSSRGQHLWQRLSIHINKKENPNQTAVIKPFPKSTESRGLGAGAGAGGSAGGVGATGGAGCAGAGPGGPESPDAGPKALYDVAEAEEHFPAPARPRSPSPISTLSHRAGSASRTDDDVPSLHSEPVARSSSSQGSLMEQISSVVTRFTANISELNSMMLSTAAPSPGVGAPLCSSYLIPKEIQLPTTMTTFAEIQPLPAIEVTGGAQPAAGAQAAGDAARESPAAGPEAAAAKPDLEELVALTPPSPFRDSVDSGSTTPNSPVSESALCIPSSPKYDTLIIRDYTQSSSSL

Target: human mGluR5 (Homo sapiens, UniProt P41594)
Conditions: read-out: human mGluR5 IC50

IC50: > 30 µM
Compound: O=C(NC1CCCCCC1)c1cc(Oc2cncnc2)ccn1
